Tested on: S.aureus 6538™
Test: Time-kill kinetic assay
Settings: after 2 minutes at 1.6 and 5.0 µg/mL RB; fluorescent light

O=C([O-])c1c(Cl)c(Cl)c(Cl)c(Cl)c1-c1c2cc(I)c(=O)c(I)c-2oc2c(I)c([O-])c(I)cc12.[Na+].[Na+] [RB, 4,5,6,7-tetrachloro-2′,4′,5′,7′-tetraiodo-fluorescein]
CFU counted: No CFU were counted
